From patent US20240044881A1 come the findings set out here.

In this assay the target is Type II ClyA-CS nanopore (Salmonella typhi) (UniProt Q8Z727). Description: single-channel current recording, planar lipid bilayer, -35 mV.

In turn, “human thrombin (from UniProt P00734 328-622) (enzyme)” registered an HT Occupancy of L2 at -35 mV, % of 96%.
